# Assay outcomes deposited in PubChem by National Center for Advancing Translational Sciences (NCATS).
# Mito fusion yeast = blocks mitochondrial division or promotes mitochondrial fusion. Potency, µM (top dose mostly 46.1 µM), without a hit: top-dose growth rescue (activation), most hits filed as activators. S. cerevisiae fusion-defective mutant growth rescue, CellTiterGlo 48 h. hit rate 0.23% among 320,000; also: potency is read from the fitted curve at half-maximal effect; % of control where 0% means no effect; nearly all actives have a fitted effect of over 45% in size
#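 S. cerevisiae fusion-defective temperature-sensitive mutants (e.g. fzo1-1, mgm1-5) grown 48 h at 37C in YPEG (ethanol/glycerol non-fermentable) medium with 23 nl compound per well; growth rescue read as CellTiterGlo luminescence.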
# miR-21 reporter = miR-21 reporter, rising signal; HeLa miR-21 FLuc reporter, luciferase, 48 h; Potency, µM (top dose mostly 38.3 µM), without a hit: at the highest dose reporter change, positive = more light; 340,000 tested, under 10 active; active = well fitted rising curve with a large enough effect; inconclusive = small, poorly fitted or top-dose-only effect; inactive = no such curve, though single readings can be large or run the other way;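 further: % of control where 0% means no effect; miR-21 action dims this reporter so a rising signal means less miR-21 action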
#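 HeLa miR-21-FLuc reporter line, endogenous miR-21; 2000 cells/well in DMEM/10% FBS; compound titration up to ~40uM final, 48 h, 37 degree Celsius; luciferase detection reagent, 15 min lysis, CCD luminescence.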
# Nrf2 block = blocks Nrf2 signaling. AID 504444. hit rate 2.1% among 360,000. A549 ARE-Fluc reporter, luciferase luminescence, 18-24 h. Potency, µM (highest dose often 46 µM), without a hit: at the highest dose activity change, negative = inhibition, hits mostly inhibitors; also: potency is read from the fitted curve at half-maximal effect; % is scaled to controls: 0 for no effect and ±100 for the full control effect; nearly all actives have a fitted effect of over 60% in size
#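 Nrf2 activity is the BugLite luminescence, read 15 min after reagent at room temperature, following CellTiter-Fluor cytotoxicity readout (30 min, 37C). Compound titrations were applied for 18-24 h to 5000 A549 ARE_Fluc cells/well in 5% FBS OPTI-MEM.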
# GRP78 ERSR act = ER stress response induction in glioma | hit rate 0.02% among 420,000 | AID 602332 | U87-MG GRP78 promoter luciferase reporter, 16 h | Potency, µM, for the others: top-dose activation, hits mostly activators; also: potency is read from the fitted curve at half-maximal effect; series mostly up to about 76 µM; % of control where 0% means no effect; nearly all actives have a fitted effect of over 35% in size
#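 Stably transfected U87-MG glioma cells carrying a GRP78-based luciferase sensor; 16 h compound incubation. Luminescence end-point read 10 min after Bright-Glo addition at room temperature.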
# Nrf2 activator = Nrf2 pathway activation | hit rate 0.31% among 410,000 | AID 624171 | Potency, µM (titrated, usually from 46.1 µM), without a hit: top-dose activation, usual class: activators | AREc32 ARE-luciferase reporter (MCF7-derived line), luminescence, 24 h; also: potency is read from the fitted curve at half-maximal effect; % of control where 0% means no effect; nearly all actives have a fitted effect of over 65% in size
#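 AREc32 cells carrying an ARE-driven firefly luciferase reporter were seeded at 1000 cells/well in OPTI-MEM with 5% FBS, then exposed to compound for 24 hr at 37 deg C. Luminescence was read with Steady-Glo after 30 min at RT.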
# A549 tox = counter-screen for Nrf2 inhibitors: cytotoxicity in A549 cells; A549 ARE-Fluc cells, CellTiter-Fluor viability, 18-24 h; hit rate 0.16% among 390,000; AID 504648; Potency, µM (series often up to 46 µM), inactives show top-dose activity change, negative = cytotoxicity, usual class: inhibitors; also: potency is read from the fitted curve at half-maximal effect; % is scaled to controls: 0 for no effect and ±100 for the full control effect
#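 A549 ARE_Fluc cells in 5% FBS OPTI-MEM were exposed to compounds in concentration-response for 18-24 h at 37 deg C. Viability was read by CellTiter-Fluor fluorescence (Ex 405/Em 525) after 30 min, before the luciferase read.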
# Starred values were filed as active, the others as inactive; ? = inconclusive; / = not tested or not shown; [ ] = dose if it differs, or a comment. Shown are actives, neighbours in structure and some others; about 2.3% of the full set was active somewhere. Unless noted, calls follow the shape of the dose curve; as a rule, active = well fitted curve in the direction sought with a large enough effect; inconclusive = small, poorly fitted or top-dose-only effect, or another doubt; inactive = no such curve, though single readings can be large; an effect the other way counts as inactive or inconclusive.
# Below each compound – Mito fusion yeast, miR-21 reporter, Nrf2 block, GRP78 ERSR act, Nrf2 activator, A549 tox
1. CC(C)N(C(=S)Nc1cccc(S(=O)(=O)N(C)C)c1)c1ccccc1
→ -1%, -3%, ?, -4%, 0%, -1%
2. COc1ccc(NC(=O)C2CC(=O)N/C(=N/N=C/c3ccco3)S2)cc1 (stereo not drawn)
→ -7%, -3%, ?, -2%, 2.5µM*, 10%
3. O=C1CC(C(=O)Nc2ccccc2)S/C(=N\N=C\c2ccco2)N1 (stereo not drawn)
→ -1%, -7%, 3%, -2%, ?, -9%
4. O=C1CC(C(=O)Nc2ccc(Br)cc2)S/C(=N\N=C\c2ccco2)N1 (stereo not drawn)
→ -1%, -2%, -7%, -4%, 6.3µM*, -2%
5. CCCNC(=O)C(Cc1ccccc1)NS(=O)(=O)c1cccc2nsnc12 (stereo not drawn)
→ 2%, -2%, 21%, -4%, 0%, 1%
6. COc1ccc(NC(=O)COC(=O)c2cc(=O)c3ccccc3o2)cc1OC
→ 0%, /, 21%, -3%, 13µM*, 0%
7. CN(Cc1ccccc1)C(=O)c1cccc(NC(=O)Cc2cccc([N+](=O)[O-])c2)c1
→ /, /, 16µM*, -4%, 0%, -3%
8. CN(C(=O)c1cccc(NC(=O)Cc2ccc([N+](=O)[O-])cc2)c1)C1CCCC1
→ /, /, 23µM*, -4%, -1%, -13%
9. CN(C(=O)c1cccc(NC(=O)Cc2cccc([N+](=O)[O-])c2)c1)C1CCCC1
→ /, /, 10µM*, -1%, 6%, -2%
10. CN(C)S(=O)(=O)c1ccc(C(=O)NC2CC(=O)N(c3ccc4c(c3)OCCO4)C2)cc1 (stereo not drawn)
→ /, 1%, /, -2%, 0%, -1%
11. CC(C)(C)SCCNC(=O)CSCc1ccc([N+](=O)[O-])cc1
→ 1%, -4%, ?, 1%, 3%, -3%
12. O=C1c2ccccc2-c2onc3c(N4CCN(CCO)CC4)cc(N4CCN(C(=O)c5ccco5)CC4)c1c23
→ -14%, 12%, ?, -19%, 9%, 21µM*
13. CN1CCN(c2cc(N3CCN(C(=O)c4ccco4)CC3)c3c4c(onc24)-c2ccccc2C3=O)CC1
→ -19%, 4%, ?, -5%, -1%, -8%
14. O=C(Oc1ccccc1C(=O)Nc1ccccc1)c1ccc(Br)c([N+](=O)[O-])c1
→ 15%, -32%, ?, 32µM*, ?, -5%
15. COc1cc(O)c(CC=C(C)C)c(O)c1C(=O)CCc1ccc(O)cc1
→ -100%, 10%, 26µM*, -3%, -1%, ?
16. O=C(CCc1ccc(O)cc1)c1c(O)cc(O)cc1O
→ ?, -1%, 22%, 3%, 13%, -4%
17. Cc1ccc2c3c([nH]c2c1C)-c1nonc1CC3
→ 11%, -61%, 22%, 4%, 3%, -5%
18. COc1cc(/C=C(/C#N)c2ccccc2)ccc1Oc1ccc([N+](=O)[O-])cn1
→ ?, 15%, 15µM*, 5%, 2%, ?
19. COc1cccc(C(=O)N/N=C/c2ccc(Oc3ccc([N+](=O)[O-])cn3)c(OC)c2)c1
→ -3%, 8%, 23µM*, -3%, 0%, ?
20. COc1cc(/C=C(\C#N)c2nc3ccccc3[nH]2)ccc1Oc1ccc([N+](=O)[O-])cn1
→ -1%, -1%, ?, -1%, 12%, ?

# The list goes on:
# Below each compound – Mito fusion yeast, miR-21 reporter, Nrf2 block, GRP78 ERSR act, Nrf2 activator, A549 tox
21. COc1ccc(/C=N/NC(=O)c2cccc([N+](=O)[O-])c2)cc1OC(=O)c1ccc(C)cc1
→ 5%, 8%, 21µM*, -3%, 0%, ?
22. COc1cccc(C(C#N)N2CCOCC2)c1 (stereo not drawn)
→ -2%, 1%, ?, 1%, 2%, -1%
23. Nc1c(C(=O)c2ccc(Br)s2)oc2ccccc12
→ ?, -29%, -32%, -4%, 3.2µM*, -2%
24. Nc1c(C(=O)c2cccs2)oc2ccccc12
→ 12%, -34%, 9%, 7%, ?, -27%
25. CCOC(=O)c1ccc(NC(=O)CSc2nc(=O)n(CCN3CCOCC3)c3c2CCC3)cc1
→ -2%, /, 18µM*, -5%, 4%, 0%
26. Cc1cc(C)c(NC(=O)c2ccc(CN3CCc4ccccc4C3)cc2)c(C)c1
→ 4%, 15%, 23µM*, -3%, 3%, ?
27. CC(=O)c1ccc(NC(=O)CSc2nc(=O)n(CCN3CCOCC3)c3c2CCC3)cc1
→ -8%, /, -1%, -2%, 3%, 1%
28. CCOc1ccc(NC(=O)c2ccc(CN3CCc4ccccc4C3)cc2)cc1
→ 0%, 9%, ?, -6%, 0%[9.22 µM], -3%
29. CCOC(=O)c1ccc(NC(=O)c2ccc(CN3CCOCC3)cc2)cc1
→ 10%, 4%, 5.2µM*, -2%, 4%, ?
30. CCOC(=O)c1ccc(NC(=O)c2ccc(CN3CCc4ccccc4C3)cc2)cc1
→ 0%, 15%, 23µM*, -4%, 0%, ?
31. NC(=O)c1ccc(NC(=O)c2ccc(CN3CCOCC3)cc2)cc1
→ -2%, -3%, 4%, -2%, 0%, 2%
32. CCC(C(=O)N1CCN(Cc2ccc3c(c2)OCO3)CC1)n1nnc2ccccc2c1=O (stereo not drawn)
→ /, /, /, -4%, 0%, /
33. COc1ccccc1C1=NOC(C(=O)N2CCN(C(=O)c3ccco3)CC2)C1 (stereo not drawn)
→ 3%, -2%, 1%, 2%, 0%, 6%
34. CC(C)C[C@@H](CN1CCCC1CN1C(=S)NC[C@@H]1Cc1ccc(O)cc1)N1C[C@H](Cc2ccccc2)N(CC2CCCCCC2)C1=S (stereo partly drawn)
→ /, /, -7%, 6%, -1%, -17%
35. CC(C)C[C@@H](CN1CCCC1CN1C(=S)NC[C@@H]1Cc1ccc(O)cc1)N1C[C@H](Cc2ccc(O)cc2)N(CC2CCCCCC2)C1=S (stereo partly drawn)
→ /, /, 21µM*, -11%, -3%, -7%
36. Oc1ccc(C[C@@H](CN2CCC[C@@H]2CN2C(=S)NC[C@@H]2Cc2ccccc2)N2C[C@H](Cc3ccccc3)N(CCc3ccccc3)C2=S)cc1
→ /, /, /, -5%, 4%, /
37. Oc1ccc(C[C@H]2CNC(=S)N2CC2CCCN2C[C@H](Cc2ccccc2)N2C[C@H](Cc3ccc(O)cc3)N(CCc3ccccc3)C2=S)cc1 (stereo partly drawn)
→ /, /, 15µM*, 0%, -1%, ?
38. Cn1c(=O)[nH]c(=O)c2c1nc(Br)n2CCCSc1nc2ccccc2o1
→ 13%, 18%, /, -6%, 5%, -8%
39. COc1ccccc1NC(=O)C(C)OC(=O)C1CCN(S(=O)(=O)c2ccccc2C(F)(F)F)CC1 (stereo not drawn)
→ /, /, 2%, -4%, -1%, -1%
40. O=C1NC(=S)SC1=Cc1ccccc1Cl
→ /, /, ?, 5%, 9%, ?
